Measurements from patent US20050059014A1, “Analytical platform and detection method with the analytes to be determined in a sample as immobilized specific binding partners” (priority 2002, published 2005).

Tested on: p44/42 MAP kinase (sum of Erk2 and pErk2)
Experiment: Cell lysate array on evanescent field sensor platform, detection with antibody A4
Assay type: cell-based, human
Settings: Jurkat cells, staurosporine 10 μM, 180 min

CN[C@@H]1C[C@H]2O[C@@](C)([C@@H]1OC)n1c3ccccc3c3c4c(c5c6ccccc6n2c5c31)C(=O)NC4 [staurosporin, staurosporine]
relative total content of Erk2/pErk2 in comparison with the other samples: no difference
